From patent US6800633B2, “Pyrrolo[2,3d]pyrimidine compositions and their use” (OSI Pharmaceuticals, Inc., priority 1998, dated 2004) come the findings set out here.

Chains of the proteins cited; added tags and fusions are not shown. Lines headed by an entry give the natural chain unless they say otherwise; changes in a name come on top.
UniProt P30542, whole entry: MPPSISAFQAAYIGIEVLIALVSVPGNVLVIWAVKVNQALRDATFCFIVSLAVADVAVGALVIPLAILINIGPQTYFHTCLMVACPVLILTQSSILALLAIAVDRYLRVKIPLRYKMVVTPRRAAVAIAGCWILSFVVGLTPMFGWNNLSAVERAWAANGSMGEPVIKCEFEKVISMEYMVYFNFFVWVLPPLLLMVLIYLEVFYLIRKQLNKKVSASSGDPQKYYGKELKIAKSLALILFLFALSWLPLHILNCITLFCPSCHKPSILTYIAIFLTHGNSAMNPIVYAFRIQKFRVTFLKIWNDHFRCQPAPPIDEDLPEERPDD
UniProt P0DMS8, whole entry: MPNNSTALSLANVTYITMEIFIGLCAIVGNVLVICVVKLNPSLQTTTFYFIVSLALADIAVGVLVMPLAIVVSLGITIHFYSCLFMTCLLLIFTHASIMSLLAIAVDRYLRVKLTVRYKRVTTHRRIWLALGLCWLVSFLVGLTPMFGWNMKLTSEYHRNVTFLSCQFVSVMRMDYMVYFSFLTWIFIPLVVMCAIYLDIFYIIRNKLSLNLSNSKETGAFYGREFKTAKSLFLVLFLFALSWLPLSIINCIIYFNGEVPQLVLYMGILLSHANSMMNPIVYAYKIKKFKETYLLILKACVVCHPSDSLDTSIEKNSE

Read-outs that look alike come from different tables or passages of the source.

The term Ki denotes a dissociation constant, usually derived from enzyme kinetics or from competition with a known ligand. As a reminder, the IC50 is the concentration that inhibits the measured activity by half.

The target of assay [1] is human A1 receptor subtype (Homo sapiens, UniProt P30542). Put plainly: biochemical.
The target in a further assay is human adenosine A1 (A1R) (Homo sapiens, UniProt P30542). Put plainly: Yeast β-Galactosidase reporter gene assay for human adenosine A1 receptor (strain CY12660). For orientation: Reporter assays use an easily measured gene product as a stand-in for the process of interest.
In assay [2] the target is human A3 receptor subtype (Homo sapiens, UniProt P0DMS8). Kind of assay: Adenosine 3 receptor competition radioligand binding, [125I]AB-MECA, HEK293 membranes.
The next assay concerns the target human A3 receptor (Homo sapiens, UniProt P0DMS8). Put plainly: Displacement binding of [3H]CPX, yeast membranes expressing hA3R. The following applies: read-out: IC50 [nM] hA3R, 0.4 nM [3H]CPX.

`CC(=O)NCCNc1nc(-c2ccccc2)nc2[nH]c(COc3ccc(F)cc3)cc12` [CDS-143995, 4-(2-acetylaminoethyl)amino-6-(4-fluorophenoxy)methyl-2-phenyl-7H-pyrrolo[2,3d]pyrimidine] yielded a Ki in assay [1] of 33 nM.

Regarding `Cc1[nH]c2nc(-c3cccs3)nc(NC3CCC(O)CC3)c2c1C` (stereo not drawn) [CDS-090890, 4-(4-trans-hydroxycyclohexyl)amino-5,6-dimethyl-2-(2-thienyl)-7H-pyrrolo[2,3d]pyrimidin-4-amine], in assay [1], the affinity corresponds to a Ki of 46.6 nM. Turning to `Cc1[nH]c2nc(-c3ccccc3)nc(NC3CC[C@@H](O)[C@@H](O)C3)c2c1C` (some centres unmarked) [CDS-069533], the IC50 on human adenosine A1 (A1R) (read-out: A1 Yeast IC50, inhibition of NECA-induced β-Galactosidase activity, yeast strain CY12660) was more than 10000 nM. Turning to `CC(=O)NCCNc1nc(-c2ccccc2)nc2[nH]c(Cn3ccccc3=O)cc12` [CDS-143988, 4-(2-acetylaminoethyl)amino-6-(N-pyridin-2-one)methyl-2-phenyl-7H-pyrrolo[2,3d]pyrimidine], the Ki in assay [1] was 60 nM.

As to `Cc1[nH]c2nc(-c3ccccc3)nc(NC3CCC(NC(=O)CCN)CC3)c2c1C` (centres unmarked) [CDS-121272], the inhibition constant Ki in assay [2] turned out to be 369 nM. Turning to `Cc1[nH]c2nc(-c3ccccc3)nc(NCC(C)NC(=O)OC(C)(C)C)c2c1C` (centres unmarked) [CDS-090906], the Ki in assay [1] was 105 nM. The same compound had a concentration for half-maximal inhibition (IC50) against human adenosine A1 (A1R) of 472 nM.

Consider `CC(Cc1ccccc1)Nc1ncnc2c1ncn2[C@@H]1O[C@H](CO)[C@@H](O)[C@H]1O` (single isomer, unassigned; (-)), for which the IC50 at human A3 receptor is 23.6 nM.
